# Test results published in PubChem BioAssay AID463187 (University of Pittsburgh Molecular Library Screening Center, 2010).
# Amino acid sequences for entries named in this document (tags omitted).
# UniProt P08631, whole entry, looked up: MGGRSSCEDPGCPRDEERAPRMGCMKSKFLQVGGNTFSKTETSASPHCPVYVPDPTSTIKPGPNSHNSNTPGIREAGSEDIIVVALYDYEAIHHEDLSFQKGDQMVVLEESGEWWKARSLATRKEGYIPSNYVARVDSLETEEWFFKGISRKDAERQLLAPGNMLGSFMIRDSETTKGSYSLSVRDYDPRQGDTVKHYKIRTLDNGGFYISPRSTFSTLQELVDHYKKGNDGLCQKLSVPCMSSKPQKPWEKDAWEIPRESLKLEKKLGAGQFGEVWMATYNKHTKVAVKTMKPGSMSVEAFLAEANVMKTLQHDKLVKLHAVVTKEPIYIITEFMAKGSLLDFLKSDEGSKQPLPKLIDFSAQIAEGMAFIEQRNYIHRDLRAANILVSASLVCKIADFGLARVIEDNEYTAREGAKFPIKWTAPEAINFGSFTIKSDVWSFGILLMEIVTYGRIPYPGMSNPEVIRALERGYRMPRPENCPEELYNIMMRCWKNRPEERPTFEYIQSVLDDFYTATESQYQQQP
# Only a part is listed here, and it is no random draw. Some structures show a salt or complex split into parts, the way the source records it. Activity calls are given as the source filed them.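 The calls were made as follows: active = Hck-Nef kinase inhibition above about 50% (limit read from the data); inactive = inhibition below that limit.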
# Target: Tyrosine-protein kinase HCK (Homo sapiens) (UniProt P08631)
# Test: inhibitors of Nef-activated human Hck kinase, primary screen, biochemical, Z-Lyte FRET, 384-well, Hck-YEEI (AID 463187);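 also: 0% = DMSO with Hck plus Nef and 100% = Hck alone without Nef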
# Details: Recombinant Hck-YEEI plus Nef, Z-Lyte FRET kinase assay; at 20 µM; hits give high values
row,Structure (SMILES),inhibition
1,CCOC(=O)c1ccc(NP(C)(=O)Oc2ccc(Cl)cc2)cc1 (stereo unspecified),inactive: -31%
2,COc1ccc(NP(C)(=O)Oc2ccccc2OC)cc1 (stereo unspecified),inactive: 9.01%
3,CN(C)CCOC(=O)C(O)(c1ccccc1)C1CCCCC1 (stereo unspecified),inactive: 1.11%
4,COc1ccc(OP(C)(=O)Nc2cccc(Br)c2)cc1 (stereo unspecified),inactive: 1.16%
5,Cc1cc(-c2cccc3ccccc23)c(C)cn1.O=[N+]([O-])c1cc([N+](=O)[O-])c(O)c([N+](=O)[O-])c1,inactive: 1.38%
6,O=[N+]([O-])c1cc([N+](=O)[O-])c(NCC2CCS(=O)(=O)C2)c([N+](=O)[O-])c1 (stereo unspecified),inactive: -11.8%
7,O=[N+]([O-])c1ccc(OP2(=O)COCCO2)cc1 (stereo unspecified),inactive: -2.29%
8,CCOP(C)(=S)SCC(=O)NC(C)(CC)C(=O)O (stereo unspecified),inactive: 0.58%
9,CP(=O)(Nc1ccc(SC(F)(F)F)cc1)Oc1ccc(F)cc1 (stereo unspecified),inactive: 15.5%
10,Cc1ccccc1NP(C)(=O)Nc1ccccc1C,inactive: -9.1%
11,CP(=O)(Nc1ccc2c(c1)OCCO2)Oc1ccccc1 (stereo unspecified),inactive: -0.525%
12,CC(C)c1ccc(OP(C)(=O)Nc2ccc(SC(F)(F)F)cc2)cc1 (stereo unspecified),inactive: 4.53%
13,CP(=O)(Nc1ccccc1F)Oc1ccccc1 (stereo unspecified),inactive: 1.34%
14,COc1ccc2c(c1O)-c1c(O)c(OC)cc3c1[C@H](C2)[N+](C)(C)CC3.O=[N+]([O-])c1cc([N+](=O)[O-])c([O-])c([N+](=O)[O-])c1[O-],inactive: 23.2%
15,O=C(OCCN1CCN(CCOCc2ccccc2)CC1)C(O)(c1ccccc1)c1ccccc1,inactive: 2.33%
16,O=C(OC1CN2CCC1CC2)c1ccc([N+](=O)[O-])cc1 (stereo unspecified),inactive: -0.273%
17,COc1ccc(OP(C)(=O)Nc2ccc(SC(F)(F)F)cc2)cc1 (stereo unspecified),inactive: 14.3%
18,CCOC(=O)c1ccc(NP(C)(=O)Oc2ccc(F)cc2)cc1 (stereo unspecified),inactive: -0.983%
19,CCCCCOc1ccc(NP(C)(=O)Oc2ccc(Cl)cc2Cl)cc1 (stereo unspecified),inactive: -3.98%
20,CP(=O)(Nc1ccccc1)Oc1ccc(F)cc1 (stereo unspecified),inactive: 1.17%
21,CCN(CC)CCCOC(=O)C(O)(c1ccccc1)C1CCCCC1 (stereo unspecified),inactive: 10.9%
